Consider 2 compounds from patent publication USRE47475E1, “Selective agents for pain suppression” (WiSys Technology Foundation, Inc., priority 2002, dated 2019).

Common to all, as to test: competitive binding assay with [3H]flunitrazepam
Experiment [1] deals with GABAA/α1 (α1β3γ2 GABAA receptor) (Homo sapiens, UniProt P14867+P18507). Conditions: read-out: Binding Affinity at GABAA/α1; Table 3.
In experiment [2] the target is GABAA/α5 (α5β3γ2 GABAA receptor) (Homo sapiens, UniProt P18507+P31644). To be noted: read-out: Binding Affinity at GABAA/α5; Table 3.
Experiment [3] addresses GABAA/α2 (α2β3γ2 GABAA receptor) (Homo sapiens, UniProt P18507+P47869). To be noted: read-out: Binding Affinity at GABAA/α2; Table 3.
For experiment [4], the target named is GABAA/α3 (α3β3γ2 GABAA receptor) (Homo sapiens, UniProt P18507+P34903). To be noted: read-out: Binding Affinity at GABAA/α3; Table 3.
The target of experiment [5] is GABAA/α6 (α6β3γ2 GABAA receptor) (Homo sapiens, UniProt P18507+Q16445). Conditions: read-out: Binding Affinity at GABAA/α6; Table 3.
The target in experiment [6] is GABAA/α4 (α4β3γ2 GABAA receptor) (Homo sapiens, UniProt P18507+P48169). To be noted: read-out: Binding Affinity at GABAA/α4; Table 3.

With `C#Cc1ccc2c(c1)C(c1ccccc1)=NCc1c(-c3nc(C(C)C)no3)ncn1-2`, the Ki in experiment [1] was more than 5 µM; in experiment [2] it was 0.152 µM; in experiment [3] it was 0.135 µM; in experiment [4], 1.03 µM; in experiment [5], more than 5 µM.

Regarding `C#Cc1ccc2c(c1)C(c1ccccc1)=NCC1=N/C(=C\N3CCN(C)CC3)C(=O)N12`, the Ki in experiment [6] and in experiment [5] was more than 5 µM throughout.
